Measured values reported in publication PMC4207771, “Identification and Characterization of Novel Renal Sensory Receptors” (PLoS ONE, 2014).

Amino acid sequences for entries named in this document (tags omitted). Residues count along the entry.
UniProt Q3KPA7, 1-317: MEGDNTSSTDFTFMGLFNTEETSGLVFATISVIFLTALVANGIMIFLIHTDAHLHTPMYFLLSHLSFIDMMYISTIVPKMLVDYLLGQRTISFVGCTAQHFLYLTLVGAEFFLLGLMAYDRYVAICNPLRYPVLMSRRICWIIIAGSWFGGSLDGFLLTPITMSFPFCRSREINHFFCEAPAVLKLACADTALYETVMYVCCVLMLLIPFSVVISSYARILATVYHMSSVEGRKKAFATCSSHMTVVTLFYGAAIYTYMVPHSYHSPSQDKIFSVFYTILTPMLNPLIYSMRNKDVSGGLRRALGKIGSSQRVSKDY

Tests used:
Conditions in all cases: chemicals tested individually, screened at 500uM (* also at 100uM)
Olfr31 = Olfr31 (Mus musculus, UniProt Q3KPA7); assay: dual-luciferase (cAMP/CREB reporter) ligand screen, Olfr31 in HEK293T cells; type: cell-based
Olfr99 = assay: dual-luciferase (cAMP/CREB reporter) ligand screen, Olfr99 in HEK293T cells; type: cell-based, mouse
Olfr693 = assay: dual-luciferase (cAMP/CREB reporter) ligand screen, Olfr693 in HEK293T cells; type: cell-based, mouse

OCCN(CCO)CCO
-: Olfr31 response in dual-luciferase assay (Olfr31) | Olfr99 response in dual-luciferase assay (Olfr99) | Olfr693 response in dual-luciferase assay (Olfr693)
